Earlier results as cited in publication PMC1892056, “Barusiban suppresses oxytocin-induced preterm labour in non-human primates” (BMC Pregnancy and Childbirth, 2007).

System: pregnant cynomolgus monkeys
Design: method as in PMID 16914691
Settings: fenoterol 3 μg kg^-1 h^-1 continuous infusion; OT control about fourfold increase
Source text: Background Preterm labour (PTL) is a major cause of neonatal mortality and morbidity, and oxytocin (OT) antagonists are potential tocolytics. Atosiban (TRACTOCILE) is a mixed vasopressin V1A/OT antagonist registered for acute treatment of PTL in Europe. […] Barusiban is a selective OT antagonist which has reached clinical development. A monkey model with OT-induced PTL was developed to compare barusiban and atosiban. In addition, the feasibility for long-term treatment of PTL with barusiban was explored.

## CC(Cc1ccc(O)cc1)NCC(O)c1cc(O)cc(O)c1 (stereo not shown) [fenoterol, reference compound]
  Increase in overall IUP during OT infusion: increased approximately threefold
